# System: MV4;11 cells
# Assay: Cell viability, EZ-Cytox tetrazolium assay, MV4;11
# Format: cell-based
# Conditions: Homo sapiens, MV4-11, 72 h, read-out: Ic50 (nM) MV4;11
# Method: MDA-MB-231 (metastatic breast cancer, ATCC HTB-26), Jurkat (human acute T lymphocytic leukemia, ATCC TIB-152), and K-562 (human chronic myelogenous leukemia, ATCC CCL-243) cells were cultured in RPMI-1640 (Sigma Co.). MCF7 (human breast adenocarcinoma, ATCC HTB-22) and PC-3 (human prostate adenocarcinoma, ATCC CRL-1435) cells were cultured in DMEM (Sigma Co.) medium supplemented with 10% fetal bovine serum and 1% penicillin/streptomycin. The cultured cells were incubated at 3° C. with 5% CO2.
# Cell viability was assessed by a tetrazolium-based assay using the EZ-Cytox Cell Viability Assay kit (DaeilLab, Korea). Briefly, 2,000 to 15,000 cells were plated in 96-well plates in 100 μl of medium. The next day, the cells were treated with compounds together with dimethyl sulfoxide (DMSO) as a negative control. Three days (72 hours) after the drug addition, 15 μl of the EZ-Cytox kit reagent was added to each well of the 96-well plate and then incubated at 37° C. in a humidified CO2 incubator for 4 hours. After incubation, the optical density (OD) was measured at a wavelength of 450 nm using a Victor multilabel reader (Perkin Elmer, Waltham, Mass., USA). The IC50 was calculated by nonlinear regression using Prism version 5.01 (GraphPad, La Jolla, Calif., USA).
structure (smiles),measurement,value
"COC(=O)c1ccc2c(c1)/C(=C1/Nc3ccccc3/C1=N\O)C(=O)N2 [Compound 1, Methyl (2Z,3E)-3-(hydroxyimino)-2′-oxo-[2,3′-biindolinylidene]-5′-carboxylate]",IC50,41 nM

# Reference: US11370779B2, “Pharmaceutical composition for preventing or treating acute myeloid leukemia or metastatic breast cancer” (PELEMED CO., LTD., priority 2017, dated 2022)
